Measured values reported in PubChem BioAssay.
The entries are a selection whose mix differs from that of the whole data set. Calls of active or inactive are those of the source.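 Rule for the calls, unless noted: active = mean inhibition above about 50% in the one-dose retest (limit read from the data); inactive = the rest.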

Sequences of proteins named here, by UniProt entry; tags and fusion partners are left off. A change or cut given only in a name is not applied to a line headed by its entry.
UniProt Q96LD8: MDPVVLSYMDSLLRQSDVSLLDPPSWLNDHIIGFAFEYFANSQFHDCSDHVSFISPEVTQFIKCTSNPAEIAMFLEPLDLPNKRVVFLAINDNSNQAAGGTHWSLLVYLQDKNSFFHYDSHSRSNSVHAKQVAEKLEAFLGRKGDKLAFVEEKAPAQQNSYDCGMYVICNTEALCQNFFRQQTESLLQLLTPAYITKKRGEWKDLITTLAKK
UniProt Q9GZR1: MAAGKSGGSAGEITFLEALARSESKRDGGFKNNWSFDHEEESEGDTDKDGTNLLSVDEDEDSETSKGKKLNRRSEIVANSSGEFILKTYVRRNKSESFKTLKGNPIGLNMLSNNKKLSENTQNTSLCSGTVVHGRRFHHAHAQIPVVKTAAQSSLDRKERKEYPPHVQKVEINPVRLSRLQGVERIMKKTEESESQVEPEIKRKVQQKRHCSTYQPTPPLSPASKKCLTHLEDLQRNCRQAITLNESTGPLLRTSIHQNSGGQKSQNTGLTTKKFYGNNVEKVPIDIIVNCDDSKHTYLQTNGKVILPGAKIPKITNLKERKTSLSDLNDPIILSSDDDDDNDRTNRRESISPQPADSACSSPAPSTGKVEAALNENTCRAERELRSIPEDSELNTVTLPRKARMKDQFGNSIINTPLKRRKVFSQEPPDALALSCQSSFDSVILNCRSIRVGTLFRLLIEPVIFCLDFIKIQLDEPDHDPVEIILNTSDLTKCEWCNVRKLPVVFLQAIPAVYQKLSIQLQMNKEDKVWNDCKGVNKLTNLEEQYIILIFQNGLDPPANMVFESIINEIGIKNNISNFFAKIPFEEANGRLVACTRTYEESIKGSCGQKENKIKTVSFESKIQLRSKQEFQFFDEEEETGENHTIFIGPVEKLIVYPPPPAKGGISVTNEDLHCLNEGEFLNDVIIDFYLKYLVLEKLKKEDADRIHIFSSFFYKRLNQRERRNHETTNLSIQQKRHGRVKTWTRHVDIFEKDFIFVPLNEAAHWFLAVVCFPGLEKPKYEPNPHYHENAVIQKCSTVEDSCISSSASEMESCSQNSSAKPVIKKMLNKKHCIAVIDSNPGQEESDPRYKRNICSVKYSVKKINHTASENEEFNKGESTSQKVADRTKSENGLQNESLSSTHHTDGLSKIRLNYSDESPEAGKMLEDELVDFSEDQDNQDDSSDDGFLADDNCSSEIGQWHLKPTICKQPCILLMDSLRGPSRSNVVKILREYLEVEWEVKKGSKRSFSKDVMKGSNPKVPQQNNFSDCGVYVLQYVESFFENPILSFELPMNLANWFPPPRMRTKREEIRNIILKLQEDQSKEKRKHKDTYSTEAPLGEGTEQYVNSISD
UniProt Q9BQF6: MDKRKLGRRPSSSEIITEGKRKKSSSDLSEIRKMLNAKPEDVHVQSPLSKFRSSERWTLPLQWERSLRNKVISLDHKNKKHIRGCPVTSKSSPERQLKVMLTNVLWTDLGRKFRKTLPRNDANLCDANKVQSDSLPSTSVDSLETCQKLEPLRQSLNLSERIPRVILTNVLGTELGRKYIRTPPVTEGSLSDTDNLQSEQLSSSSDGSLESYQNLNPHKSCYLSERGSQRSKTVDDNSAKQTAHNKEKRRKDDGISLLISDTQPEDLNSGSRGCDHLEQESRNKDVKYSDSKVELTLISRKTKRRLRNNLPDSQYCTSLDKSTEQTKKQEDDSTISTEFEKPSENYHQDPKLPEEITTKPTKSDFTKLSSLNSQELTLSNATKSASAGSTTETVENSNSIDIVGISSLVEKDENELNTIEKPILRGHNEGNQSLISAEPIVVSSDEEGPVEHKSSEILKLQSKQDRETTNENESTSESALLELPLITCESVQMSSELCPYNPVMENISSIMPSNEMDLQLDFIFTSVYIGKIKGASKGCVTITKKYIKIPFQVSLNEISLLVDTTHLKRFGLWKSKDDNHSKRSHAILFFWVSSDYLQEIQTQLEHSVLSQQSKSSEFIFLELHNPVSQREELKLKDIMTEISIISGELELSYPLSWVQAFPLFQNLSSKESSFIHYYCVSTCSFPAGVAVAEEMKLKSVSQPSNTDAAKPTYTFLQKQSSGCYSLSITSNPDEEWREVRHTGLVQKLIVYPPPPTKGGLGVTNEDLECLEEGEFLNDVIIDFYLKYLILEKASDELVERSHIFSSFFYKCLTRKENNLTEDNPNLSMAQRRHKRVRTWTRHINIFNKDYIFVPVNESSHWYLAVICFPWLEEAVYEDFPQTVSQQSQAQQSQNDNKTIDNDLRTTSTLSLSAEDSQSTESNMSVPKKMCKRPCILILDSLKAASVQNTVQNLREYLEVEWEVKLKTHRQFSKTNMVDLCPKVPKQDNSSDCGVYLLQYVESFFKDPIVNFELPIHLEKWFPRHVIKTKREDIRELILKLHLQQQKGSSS
UniProt P42574: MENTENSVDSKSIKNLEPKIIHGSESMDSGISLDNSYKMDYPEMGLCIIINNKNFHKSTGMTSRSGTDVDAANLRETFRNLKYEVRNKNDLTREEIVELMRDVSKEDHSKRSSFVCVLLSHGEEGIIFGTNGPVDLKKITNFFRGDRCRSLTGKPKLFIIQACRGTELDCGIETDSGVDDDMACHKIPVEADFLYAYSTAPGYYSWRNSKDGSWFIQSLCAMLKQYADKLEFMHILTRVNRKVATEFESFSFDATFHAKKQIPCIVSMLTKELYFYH

Experiments:
[1] = fluorescence interference of Apaf-1 inhibitor hits, dose response, artefact control for Apaf-1 inhibitor project (AID 588538; call rule not given here); settings: fluorescence interference counterscreen, Apaf-1 assay format
[2] = target: Sentrin-specific protease 8 (Homo sapiens) (UniProt Q96LD8); assay: human SENP8 peptidase blockers, hit retest – biochemical, luminescence, single concentration, confirmation (AID 488912;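 active = mean inhibition across replicates above about 50%, limit read from the data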); settings: Recombinant SENP8, Z-RLRGG-aminoluciferin luminescence, 60 min; at 12.5 µM; hits give high values
[3] = target: Sentrin-specific protease 6 (Homo sapiens) (UniProt Q9GZR1); assay: inhibition of human SENP6 catalytic domain – biochemical, luminescence, single concentration, confirmation (AID 488915); settings: recombinant SENP6, Z-RLRGG-aminoluciferin luminescence; at 12.5 µM; hits give high values
[4] = target: Sentrin-specific protease 7 (Homo sapiens) (UniProt Q9BQF6); assay: human SENP7 peptidase blockers, hit retest – biochemical, luminescence, single concentration, confirmation (AID 488917); settings: recombinant SENP7, Z-RLRGG-aminoluciferin luminescence, 40 min; at 12.5 µM; hits give high values
[5] = target: Caspase-3 (Homo sapiens) (UniProt P42574); assay: human caspase-3 activity blockade, out-of-family – biochemical, single concentration, selectivity assay for SENP inhibitor project, confirmation (AID 488918;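 active = mean inhibition above about 50%, limit read from the data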;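 note: plate controls were enzyme with DMSO for no effect and wells without caspase-3 for full effect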); settings: purified caspase-3, Z-DEVD-aminoluciferin luminescence, 60 min; at 12.5 µM; hits give high values
[6] = Ultra-Glo luciferase signal interference – biochemical, single concentration, SENP8 reaction pre-completed, artefact control for SENP inhibitor project, confirmation (AID 488919;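 active = mean inhibition above about 50% when retested at one dose, limit read from the data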;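 note: plate controls were DMSO wells with completed reaction for no effect and substrate without enzyme for full effect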); settings: Pre-incubated SENP8/Z-RLRGG-aminoluciferin, luciferase luminescence interference; at 12.5 µM; hits give high values

SMILES	IC50 [1]	inhibition [2]	inhibition [3]	inhibition [4]	inhibition [5]	inhibition [6]
CCCCC(CC)CN=C(N)NC(N)=NCCCCCCN=C(N)NC(N)=NCC(CC)CCCC (stereo unspecified)	inactive: > 100 µM					
Oc1ccc(/C=C/c2cc(O)cc(O)c2)cc1		active: 85.1%	active: 77.3%	active: 92.6%	active: 61.2%	active: 79.9%
